For 2 compounds, IC50 results are on record in patent US20150166523A1, “BRANCHED CHAIN ALKYL HETEROAROMATIC RING DERIVATIVE” (TAISHO PHARMACEUTICAL CO., LTD., priority 2012, published 2015).

Protein sequences, listed by entry. Tags and fused reporters are not part of them.
UniProt O43614, whole entry: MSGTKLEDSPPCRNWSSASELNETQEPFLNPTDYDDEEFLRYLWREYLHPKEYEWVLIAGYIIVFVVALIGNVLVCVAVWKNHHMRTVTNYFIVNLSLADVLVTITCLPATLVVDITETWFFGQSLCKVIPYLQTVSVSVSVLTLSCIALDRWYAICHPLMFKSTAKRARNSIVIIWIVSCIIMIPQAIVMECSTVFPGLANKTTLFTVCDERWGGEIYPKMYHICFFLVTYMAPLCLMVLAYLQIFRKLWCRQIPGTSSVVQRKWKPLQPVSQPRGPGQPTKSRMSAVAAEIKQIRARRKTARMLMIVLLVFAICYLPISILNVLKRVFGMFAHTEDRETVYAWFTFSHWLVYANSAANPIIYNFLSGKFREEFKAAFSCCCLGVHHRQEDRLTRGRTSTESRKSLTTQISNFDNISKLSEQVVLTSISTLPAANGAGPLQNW
UniProt O43613, whole entry: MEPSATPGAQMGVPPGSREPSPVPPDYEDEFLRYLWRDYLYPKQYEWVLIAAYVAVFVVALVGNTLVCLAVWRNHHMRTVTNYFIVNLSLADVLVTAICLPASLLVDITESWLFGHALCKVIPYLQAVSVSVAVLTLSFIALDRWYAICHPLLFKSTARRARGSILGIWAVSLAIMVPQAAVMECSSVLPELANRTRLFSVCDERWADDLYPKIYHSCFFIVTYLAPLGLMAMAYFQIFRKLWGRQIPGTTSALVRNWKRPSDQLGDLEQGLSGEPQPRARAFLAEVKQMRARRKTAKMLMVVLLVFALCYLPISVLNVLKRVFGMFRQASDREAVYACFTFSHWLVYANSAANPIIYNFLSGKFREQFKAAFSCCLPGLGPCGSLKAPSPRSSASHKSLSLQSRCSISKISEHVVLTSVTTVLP

Each structure is given as a SMILES string.

As usually defined, the IC50 is the point on the concentration scale where inhibition reaches its midpoint.

Experiment [1] has as its target T1, orexin-2 receptor (hOX2R) (Homo sapiens, UniProt O43614).
T1 construct: expressed in transfected cells; host or cells: Chinese hamster ovary (CHO) cells
As to the kind of experiment: Measurement of orexin antagonistic activity (intracellular Ca2+ fluorescence, FDSS) on hOX2R. The format is cell-based. The following applies: CHO cells forcibly expressing hOX2R; Fluo-4AM; ligand peptide (substituted human orexin-A) 3 nM; compound preincubated 30 minutes; read-out: IC50 Value OX2. The protocol:
(§1) The antagonistic activities of the test compounds on human orexin-1 receptor (hOX1R) and orexin-2 receptor (hOX2R) were measured by modifying from the method described in literature (Toshikatsu Okumura et al., Biochemical and Biophysical Research Communications, 280, 976-981, 2001). Chinese hamster ovary (CHO) cells forcibly expressing the hOX1R and hOX2R were seeded into a 96 well Black clear bottom plate (Nunc) at 20,000 cells per well, which were cultured in Ham's F-12 medium containing 0.1 mM MEM non-essential amino acids, 0.5 mg/mL G418, 10% fetal bovine serum (all by Invitrogen) for 16 hours under the conditions of 37° C., 5% CO2. After removing the medium, 100 μL of 0.5 μM Fluo-4AM ester (Dojin) in an assay buffer (25 mM HEPES (Dojin), Hank's balanced salt solution (Invitrogen), 0.1% bovine serum albumin, 2.5 mM probenecid, 200 μg/mL Amaranth (all by Sigma-Aldrich), pH 7.4) was added and the cells were incubated for 60 minutes at 37° C., 5% CO2. […]
(§2) The reaction was measured for the fluorescence intensity of each well every second for 3 minutes using Functional Drug Screening System (FDSS; Hamamatsu Photonics K.K.), and the antagonistic activity was determined using the maximum fluorescence intensity as the indicator of intracellular Ca2+ concentration.

Experiment [2] addresses T2, human orexin-1 receptor (hOX1R) (Homo sapiens, UniProt O43613).
T2 construct: expressed in transfected cells; host or cells: Chinese hamster ovary (CHO) cells
As to the kind of experiment: Measurement of orexin antagonistic activity (intracellular Ca2+ fluorescence, FDSS) on hOX1R. The following applies: CHO cells forcibly expressing hOX1R; Fluo-4AM; ligand peptide (substituted human orexin-A) 300 pM; compound preincubated 30 minutes; read-out: IC50 Value OX1. The format is cell-based. As to the method: as §1, §2

As to `CCN(C(=O)c1nc(C)ccc1-c1ncccn1)[C@@H](C)Cn1nnc(-c2ccc(F)cc2)n1` [Example 69, N-Ethyl-N-{(2S)-1-[5-(4-fluorophenyl)-2H-tetrazol-2-yl]propan-2-yl}-6-methyl-3-(pyrimidin-2-yl)pyridine-2-carboxamide], the IC50 in experiment [1] was found to be 1900 nM.

As to `CCN(C(=O)c1cc(F)ccc1-c1ncccn1)[C@@H](C)Cn1nnc(-c2ccc(F)cc2)n1` [Example 70, N-Ethyl-5-fluoro-N-{(2S)-1-[5-(4-fluorophenyl)-2H-tetrazol-2-yl]propan-2-yl}-2-(pyrimidin-2-yl)benzamide], the half-inhibitory concentration (IC50) in experiment [2] worked out at 1.1 nM; in experiment [1], 452 nM.
